From PMC9394474 (Viruses, 2022)

Tests used:
human hisTRIM7-PRYSPRY = human hisTRIM7-PRYSPRY (Homo sapiens, UniProt Q9C029); experiment: ITC binding to human TRIM7 PRYSPRY (wild type); conditions: ITC
[1] = molecular target: mTrim7-PRYPSRY (Mouse TRIM7); experiment: ITC binding to mouse TRIM7 PRYSPRY; conditions: 15 °C, 50 mM phosphate pH 6.5, 1 mM DTT, TRIM7 500 µM, ligand 100 µM
hisMBP-TRIM7-CC-PRYSPRY = molecular target: T1, hisMBP-TRIM7-CC-PRYSPRY (Homo sapiens, UniProt Q9C029); experiment: ITC binding to dimeric MBP-TRIM7-CC-PRYSPRY; conditions: 25 °C
T1 construct: made in house; host or cells: E. coli C41

[2] = 15 °C, 50 mM phosphate pH 6.5, 1 mM DTT

B1: rbGYG1: recombinant full-length rabbit glycogenin-1 with N-terminal hexahistidine tag (protein)
chain: MTDQAFVTLTTNDAYAKGALVLGSSLKQHRTSRRLAVLTTPQVSDTMRKALEIVFDEVITVDILDSGDSAHLTLMKRPELGVTLTKLHCWSLTQYSKCVFMDADTLVLANIDDLFEREELSAAPDPGWPDCFNSGVFVYQPSVETYNQLLHVASEQGSFDGGDQGLLNTFFNSWATTDIRKHLPFIYNLSSISIYSYLPAFKAFGANAKVVHFLGQTKPWNYTYDTKTKSVRSEGHDPTMTHPQFLNVWWDIFTTSVVPLLQQFGLVQDTCSYQHVEDVSGAVSHLSLGETPATTQPFVSSEERKERWEQGQADYMGADSFDNIKKKLDTYLQ
DH (human hisTRIM7-PRYSPRY; [2]): -7.271 ± 0.13 kcal/mol
N (stoichiometry) (human hisTRIM7-PRYSPRY; [2]): 1.07±0.014

B2: mGYG1: recombinant full-length mouse glycogenin-1 (protein)
chain: MTDQAFVTLTTNDAYAKGALVLGSSLKQHRTTRRMVVLTSPQVSDSMRKVLETVFDDVIMVDVLDSGDSAHLTLMKRPELGITLTKLHCWSLTQYSKCVFMDADTLVLSNIDDLFEREELSAAPDPGWPDCFNSGVFVYQPSIETYNQLLHLASEQGSFDGGDQGLLNTYFSGWATTDITKHLPFVYNLSSISIYSYLPAFKAFGKNAKVVHFLGRTKPWNYTYNPQTKSVNCDSQDPTVSHPEFLNLWWDTFTTNVLPLLQHHGLVKDASSYLMMEHVSGALSDLSFGEAPAAPQPSMSSEERKERWEQGQADYMGADSFDNIKRKLDTYLQ
Kd [1]: 1040 nM

B3: hGYG1-GN1: hexahistidine-tagged GYG1 construct comprising the full-length human GN1 isoform of GYG1 (protein)
chain: MTDQAFVTLTTNDAYAKGALVLGSSLKQHRTTRRLVVLATPQVSDSMRKVLETVFDEVIMVDVLDSGDSAHLTLMKRPELGVTLTKLHCWSLTQYSKCVFMDADTLVLANIDDLFDREELSAAPDPGWPDCFNSGVFVYQPSVETYNQLLHLASEQGSFDGGDQGILNTFFSSWATTDIRKHLPFIYNLSSISIYSYLPAFKVFGASAKVVHFLGRVKPWNYTYDPKTKSVKSEAHDPNMTHPEFLILWWNIFTTNVLPLLQQFGLVKDTCSYVNVEDVSGAISHLSLGEIPAMAQPFVSSEERKERWEQGQADYMGADSFDNIKRKLDTYLQ
DH (hisMBP-TRIM7-CC-PRYSPRY): -23.8 ± 0.991 kcal/mol
N (stoichiometry) (hisMBP-TRIM7-CC-PRYSPRY; dimer concentrations used in the analysis for GYG1 protein): 0.8 ± 0.02
DH (human hisTRIM7-PRYSPRY; 25 °C, TRIM7 20 µM): -27 ± 3.3 kcal/mol
N (stoichiometry) (human hisTRIM7-PRYSPRY; 25 °C, for hGYG1-GN1 (**) concentration of GYG1 dimer used in the analysis): 0.42±0.03
Kd (human hisTRIM7-PRYSPRY; one-site model, 25 °C, 150 mM NaCl, 50 mM Tris pH 8, 1 mM DTT, 0-1% DMSO, TRIM7 20 µM, ligand 400 µM (Ac-LQ, Ac-LLQ 800 µM; LQ 2000 µM), NB = no binding): 2160 nM
